The nature of experiment [1]: Thermal hypernociception in CCI rats (Hargreaves test, % MPE). In kind it is in vivo, rat. The note with it: morphine 5 mg/kg s.c.; first administration, 7 days post-CCI.
A short description of experiment [2]: Mechanical allodynia dose-response in CCI rats (von Frey filaments, % MPE). In kind it is in vivo, rat. Conditions: morphine 5 mg/kg s.c.; first administration, 7 days post-CCI.

Each structure is given as a SMILES string.

For the molecule `CN1CC[C@]23c4c5ccc(O)c4O[C@H]2[C@@H](O)C=C[C@H]3[C@H]1C5` [morphine, reference compound], the “% MPE, thermal hypernociception” value in experiment [1] is 75.32±15.9%. For the same molecule, in experiment [2], the “% MPE, mechanical allodynia” value was 75.30±16.2%.

(Values after patent US20230054379A1, “COMPOSITION AND METHOD OF TREATMENT TO SIMU[…] THE […] EFFICACY OF OPIOIDS AND REDUCE THEIR ADDICTIVE POWER” (Centro de Investigacion Y Desarrollo de Medicamentos (CIDEM), priority 2020, published 2023).)
